Columns and labels:
[1] = target: biotinylated truncated STAT6 (123-632)-avi (Homo sapiens, UniProt P42226); assay: STAT6 HTRF binding assay; settings: read-out: STAT6 HTRF: Average IC50; 0.15 nM biotinylated truncated STAT6 (123-632)-avi, 20 nM fluorescein-labeled probe, 30 minutes at room temperature
STAT6 = STAT6 (Homo sapiens, UniProt P42226); assay: STAT6 ubiquitination in PBMC (diGly peptide enrichment, mass spectrometry); settings: for % of Total STAT6 Ub / Intensity: PBMC, 30 nM or 100 nM, 15 minutes
Method: This example describes ubiquitination of STAT6 by compounds disclosed herein. Human STAT6 contains the following amino acid sequence:
PBMC Sample Preparation Protocol. Frozen PBMC (AllCells LP, CR, MNC, 100M) were thawed and washed with prewarned complete media (RPMI 1640+10% HIFBS+Pen/Strep prepared with RPMI 1640 (Gibco. #11-875-093, #15140-122 and R&D Systems, #S11550H)). The cells were resuspended in complete media at 1.25 million cells per mL in flasks and incubated overnight in a tissue culture incubator.
The next day, 0.72 μL or 2.4 μL of a 10 mM stock solution of degrader compound (10 mM of I-1, I-167, I-205, I-383, or I-452 in DMSO) was added to a final concentration of 30 nM or 100 nM. At the end of treatment (15 minutes), the cell culture was poured into 50 mL tubes (10 tubes for each 480 mL total volume). The 50 mL tubes were spun down at 4000×g for 2 minutes. The media was decanted, and cells washed with 30 mL PBS. All the cells were combined, and then spun again at 4000×g for 2 minutes. Wash solution was decanted. All tubes were washed once more with 25 mL PBS and combined into one tube. 200 μL the cells (0.8%) was set aside for quality control analysis. The rest of the cells were spun down at 4000×g for 2 minutes. The second wash solution was decanted, and cells spun down again at 4000×g for 1 minute. A 1 mL pipette was used to remove all PBS from the pellet of cells. The pellet of cells was snap frozen for 20 seconds in liquid nitrogen, then stored at −78° C.
Extract protein, reduce, and alkylate: 1800 μL of Urca buffer (8 M Urca, 100 mM Triethylammonium bicarbonate (TEAB). 1 mM ethylenediaminetetraacetic acid (EDTA), 1% Halt™ Protease and Phosphotase Inhibitor (Thermo Fisher Scientific), and 1% Pierce™ Universal Nuclease (Thermo Fisher Scientific) was added to each cell sample. Samples were probe sonicated for 15 seconds (3 times) using 40% amplitude. Protein concentrations of the resultant cell lysates were determined by using Pierce™ Rapid Gold BCA Protein Assay Kit (Product No. A53226).
The lysate mixture containing 20 mg total proteins was reduced at RT for 30 min by adding dithiothreitol (DTT) to the final concentration of 10 mM DTT. 2-iodo acetamid (IAA) was then added to a final concentration of 10 mM to alkylate the proteins. The lysate mixture was placed in the dark for 30 mins, then a further amount of DTT to again reach 10 mM final concentration was added to the lysate mixture to neutralize excess IAA. The lysate mixture was incubated at room temperature for 5 min, then 100 mM TEAB buffer at pH 8.0 was added to dilute the lysate mixture to a urea concentration of less than IM. Trypsin/Lys-C Protease was then added to the reduced and alkylated lysate mixture to provide a protein to enzyme ratio of 1:50. The mixture was digested at 37° C. overnight in an incubator with 500 rpm shaking. The mixture was then acidified to a pH of lower than 3 using trifluoro acetic acid (TFA) and gently mixed to quench the digestion process.
Peptide Desalting: 200 mg Sep-Pak C18 cartridges (Waters) were activated by adding twice 750 μL of methanol (MeOH). Cartridges were equilibrated by twice letting 700 μL 0.1% formic acid (FA) pass through as above. The acidified sample mixture was added to the cartridges and collected after passing through the cartridge. Cartridges were washed three times with 700 μL of 0.1% formic acid. Peptides were eluted using 700 L volumes of 50% acetonitrile (ACN)^+0.1% TFA and dried in a speed-vac concentrator.
DiGly Peptide Enrichment: Peptide samples containing 20 mg/sample were resuspended in 1.8 mL of 1×HS IAP Bind Buffer #1 from PTMScan® HS Ubiquitin/SUMO Remnant Motif (K-GG) Kit (#59322S). To that end, pellets were broken up mechanically by pipetting repeatedly, followed by shaking at room temperature for 5 min or placement in a sonicator bath for 2 min to ensure complete solubilization. The pH of peptide solutions was adjusted to 7.0 with 1M pH 7.0 TRIS base solution. […]

Chains of the proteins cited; added tags and fusions are not shown. Residues count along the entry.
UniProt P42226, whole entry: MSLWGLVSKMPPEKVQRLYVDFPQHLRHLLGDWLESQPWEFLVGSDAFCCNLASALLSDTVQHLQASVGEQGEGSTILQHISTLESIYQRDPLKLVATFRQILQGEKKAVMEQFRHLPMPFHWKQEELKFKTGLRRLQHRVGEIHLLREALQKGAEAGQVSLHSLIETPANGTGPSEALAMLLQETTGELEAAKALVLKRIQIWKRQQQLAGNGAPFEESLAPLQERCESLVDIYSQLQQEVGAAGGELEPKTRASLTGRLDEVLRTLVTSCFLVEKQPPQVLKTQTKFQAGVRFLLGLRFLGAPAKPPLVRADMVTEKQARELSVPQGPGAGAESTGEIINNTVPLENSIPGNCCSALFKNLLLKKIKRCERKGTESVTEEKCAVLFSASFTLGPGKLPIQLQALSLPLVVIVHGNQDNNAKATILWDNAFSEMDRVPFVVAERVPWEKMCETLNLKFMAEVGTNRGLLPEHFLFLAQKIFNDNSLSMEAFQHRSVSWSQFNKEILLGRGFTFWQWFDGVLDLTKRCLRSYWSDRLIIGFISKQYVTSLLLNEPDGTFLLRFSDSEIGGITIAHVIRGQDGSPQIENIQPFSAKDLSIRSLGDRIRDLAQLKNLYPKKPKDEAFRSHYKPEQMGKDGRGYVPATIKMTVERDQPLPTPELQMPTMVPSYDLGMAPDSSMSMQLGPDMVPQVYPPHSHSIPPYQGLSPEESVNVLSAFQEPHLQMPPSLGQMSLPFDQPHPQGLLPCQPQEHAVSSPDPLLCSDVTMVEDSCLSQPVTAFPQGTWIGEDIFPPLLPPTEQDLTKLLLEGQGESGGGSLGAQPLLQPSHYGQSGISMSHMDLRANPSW
UniProt P42226, 123-632 limits assumed: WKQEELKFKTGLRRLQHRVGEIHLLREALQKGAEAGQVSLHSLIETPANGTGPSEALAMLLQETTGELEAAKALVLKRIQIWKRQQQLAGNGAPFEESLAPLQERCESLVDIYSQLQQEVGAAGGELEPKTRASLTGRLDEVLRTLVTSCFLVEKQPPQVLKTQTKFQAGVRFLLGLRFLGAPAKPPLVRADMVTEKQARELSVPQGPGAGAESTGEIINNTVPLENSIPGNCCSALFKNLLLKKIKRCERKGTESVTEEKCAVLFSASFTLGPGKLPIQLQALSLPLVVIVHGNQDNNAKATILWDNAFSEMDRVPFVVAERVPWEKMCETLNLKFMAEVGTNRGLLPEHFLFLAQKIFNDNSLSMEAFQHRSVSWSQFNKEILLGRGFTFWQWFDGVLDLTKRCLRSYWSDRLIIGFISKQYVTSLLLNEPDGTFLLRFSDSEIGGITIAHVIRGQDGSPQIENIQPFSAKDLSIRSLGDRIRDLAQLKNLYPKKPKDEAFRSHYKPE

COc1cc(N2CCN(CCc3ccc(C4CCC(=O)NC4=O)cc3F)CC2)ccc1-c1cc(C2=CCCN(C(=O)CCn3ccnn3)C2)c(F)c2[nH]c(C(=O)N(C)C)cc12 (centres unmarked)
IC50 [1]: < 100 nM
% of Total (STAT6; STAT6 diGly site K94): 1.5 ± 0.3%
Intensity (E + 06) (STAT6; STAT6 diGly site K94): 7.40 ± 2.12 E + 06
% of Total (STAT6; STAT6 diGly site K107): 0.5 ± 0.2%
Intensity (E + 06) (STAT6; STAT6 diGly site K107): 2.67 ± 0.71 E + 06
% of Total (STAT6; STAT6 diGly site K108): 2.8 ± 0.8%
Intensity (E + 06) (STAT6; STAT6 diGly site K108): 13.6 ± 4.6 E + 06
% of Total (STAT6; STAT6 diGly site K124): 0.6 ± 0.2%
Intensity (E + 06) (STAT6; STAT6 diGly site K124): 2.94 ± 0.62 E + 06
% of Total (STAT6; STAT6 diGly site K277): 0.2 ± 0.4%
Intensity (E + 06) (STAT6; STAT6 diGly site K277): 1.27 ± 2.20 E + 06
% of Total (STAT6; STAT6 diGly site K284): 0.5 ± 0.2%
Intensity (E + 06) (STAT6; STAT6 diGly site K284): 2.15 ± 0.70 E + 06
% of Total (STAT6; STAT6 diGly site K288): 1.9 ± 0.4%
Intensity (E + 06) (STAT6; STAT6 diGly site K288): 9.40 ± 1.51 E + 06
% of Total (STAT6; STAT6 diGly site K307): 2.1 ± 0.3%
Intensity (E + 06) (STAT6; STAT6 diGly site K307): 10.1 ± 1.1 E + 06
% of Total (STAT6; STAT6 diGly site K319): 5.7 ± 2.5%
Intensity (E + 06) (STAT6; STAT6 diGly site K319): 27.4 ± 10.2 E + 06
% of Total (STAT6; STAT6 diGly site K504): 41.1 ± 12.6%
Intensity (E + 06) (STAT6; STAT6 diGly site K504): 206 ± 90 E + 06
% of Total (STAT6; STAT6 diGly site K595): 4.8 ± 0.4%
Intensity (E + 06) (STAT6; STAT6 diGly site K595): 23.1 ± 1.7 E + 06
% of Total (STAT6; STAT6 diGly site K614): 1.1 ± 0.5%
Intensity (E + 06) (STAT6; STAT6 diGly site K614): 4.94 ± 1.87 E + 06
% of Total (STAT6; STAT6 diGly site K618): 0.3 ± 0.1%
Intensity (E + 06) (STAT6; STAT6 diGly site K618): 1.60 ± 0.55 E + 06
% of Total (STAT6; STAT6 diGly site K630): 28.7 ± 7.6%
Intensity (E + 06) (STAT6; STAT6 diGly site K630): 138 ± 28 E + 06
% of Total (STAT6; STAT6 diGly site K636): 1.2 ± 1.1%
Intensity (E + 06) (STAT6; STAT6 diGly site K636): 5.53 ± 4.68 E + 06
% of Total (STAT6; STAT6 diGly site K647): 7.1 ± 1.7%
Intensity (E + 06) (STAT6; STAT6 diGly site K647): 34.2 ± 6.0 E + 06

CN(C)C(=O)c1cc2c(-c3ccc(N4CCN(CCCc5ccc6c(c5)n(C)c(=O)n6C5CCC(=O)NC5=O)CC4)cc3)cc(C3=CCCN(C(=O)CCn4ccnn4)C3)cc2[nH]1 (centres unmarked)
IC50 [1]: < 100 nM
STAT6 ubiquitination profile (STAT6; DiGly enriched peptides from treated cells, compared with endogenous profiles of the literature): distinct from profiles reported in the literature in untreated cancer cell lines
% of Total STAT6 Ub (STAT6; STAT6 site K94): 1.5 ± 0.2%
Intensity (STAT6; STAT6 site K94 diGly peptide): 2.31 ± 0.23 E + 06
% of Total STAT6 Ub (STAT6; STAT6 site K108): 1.2 ± 1.2%
Intensity (STAT6; STAT6 site K108 diGly peptide): 1.97 ± 1.93 E + 06
% of Total STAT6 Ub (STAT6; STAT6 site K124): 0.1 ± 0.2%
Intensity (STAT6; STAT6 site K124 diGly peptide): 0.22 ± 0.39 E + 06
% of Total STAT6 Ub (STAT6; STAT6 site K277): 0.4 ± 0.4%
Intensity (STAT6; STAT6 site K277 diGly peptide): 0.64 ± 0.57 E + 06
% of Total STAT6 Ub (STAT6; STAT6 site K284): 0.3 ± 0.1%
Intensity (STAT6; STAT6 site K284 diGly peptide): 0.41 ± 0.13 E + 06
% of Total STAT6 Ub (STAT6; STAT6 site K288): 0.8 ± 0.5%
Intensity (STAT6; STAT6 site K288 diGly peptide): 1.23 ± 0.69 E + 06
% of Total STAT6 Ub (STAT6; STAT6 site K307): 3.7 ± 0.9%
Intensity (STAT6; STAT6 site K307 diGly peptide): 5.78 ± 0.91 E + 06
% of Total STAT6 Ub (STAT6; STAT6 site K319): 5.1 ± 3.1%
Intensity (STAT6; STAT6 site K319 diGly peptide): 8.12 ± 5.02 E + 06
% of Total STAT6 Ub (STAT6; STAT6 site K374): 1.7 ± 0.7%
Intensity (STAT6; STAT6 site K374 diGly peptide): 2.73 ± 1.21 E + 06
% of Total STAT6 Ub (STAT6; STAT6 site K504): 33.7 ± 6.4%
Intensity (STAT6; STAT6 site K504 diGly peptide): 54.1 ± 13.1 E + 06
% of Total STAT6 Ub (STAT6; STAT6 site K595): 6.6 ± 0.2%
Intensity (STAT6; STAT6 site K595 diGly peptide): 10.6 ± 1.1 E + 06
% of Total STAT6 Ub (STAT6; STAT6 site K614): 0.9 ± 0.2%
Intensity (STAT6; STAT6 site K614 diGly peptide): 1.44 ± 0.26 E + 06
% of Total STAT6 Ub (STAT6; STAT6 site K630): 32.7 ± 2.2%
Intensity (STAT6; STAT6 site K630 diGly peptide): 52.0 ± 3.0 E + 06
% of Total STAT6 Ub (STAT6; STAT6 site K636): 3.3 ± 1.2%
Intensity (STAT6; STAT6 site K636 diGly peptide): 5.33 ± 2.06 E + 06
% of Total STAT6 Ub (STAT6; STAT6 site K647): 7.9 ± 1.7%
Intensity (STAT6; STAT6 site K647 diGly peptide): 12.4 ± 1.7 E + 06

Source: patent publication US20260124309A1, “STAT6 DEGRADERS AND USES THEREOF” (Kymera Therapeutics, Inc., priority 2023, published 2026)
